In US10618902B2, “Substituted pyrido[2,3-d]pyrimidines as inhibitors of protein kinases” (Celgene CAR LLC, priority 2013, dated 2020) one finds IC50, EC50 and GI50 data, which are given here for 15 compounds.

Sequences of proteins named here, by UniProt entry; tags and fusion partners are left off. Residues count along the entry.
UniProt P22455, 22-802 limits assumed: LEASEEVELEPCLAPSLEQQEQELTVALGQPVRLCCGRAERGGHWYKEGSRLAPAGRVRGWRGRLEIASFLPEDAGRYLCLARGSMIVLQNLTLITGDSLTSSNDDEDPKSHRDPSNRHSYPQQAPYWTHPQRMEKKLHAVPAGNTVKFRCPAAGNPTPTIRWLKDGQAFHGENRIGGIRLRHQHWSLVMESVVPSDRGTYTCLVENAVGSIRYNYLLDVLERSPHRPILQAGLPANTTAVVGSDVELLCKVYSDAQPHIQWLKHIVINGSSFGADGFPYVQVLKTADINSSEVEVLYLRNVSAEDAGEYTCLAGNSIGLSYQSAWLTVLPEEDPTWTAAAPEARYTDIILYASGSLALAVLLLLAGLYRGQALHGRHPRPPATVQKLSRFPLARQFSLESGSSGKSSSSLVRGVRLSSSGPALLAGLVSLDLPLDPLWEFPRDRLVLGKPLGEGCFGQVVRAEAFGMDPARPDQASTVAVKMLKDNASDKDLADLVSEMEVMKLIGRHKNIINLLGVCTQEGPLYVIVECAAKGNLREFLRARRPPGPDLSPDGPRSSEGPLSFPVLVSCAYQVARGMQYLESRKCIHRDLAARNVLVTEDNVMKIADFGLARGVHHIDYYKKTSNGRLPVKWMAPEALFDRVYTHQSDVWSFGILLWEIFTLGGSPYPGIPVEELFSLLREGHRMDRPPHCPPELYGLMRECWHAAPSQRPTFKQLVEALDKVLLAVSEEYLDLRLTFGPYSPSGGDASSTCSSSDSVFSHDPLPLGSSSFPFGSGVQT

SMILES strings stand for the structures.

For one experiment, the target named is FGFR4-WT (Homo sapiens (Human), UniProt P22455). The experiment can be described thus: Omnia assay for potency against FGFR4 enzyme. The format is biochemical. Conditions: read-out: FGFR4 IC50; method a: FGFR4-WT (Invitrogen) 10 nM, ATP 300 uM, Y10-Sox 10 uM.
Another experiment deals with pFGFR4 (Huh7 cells) (Homo sapiens (Human), UniProt P22455). The experiment can be described thus: FGFR4 signaling (pFGFR4) in Huh7 cells (MSD). Conditions: read-out: Signaling EC50 (nM) pFGFR4 (Huh). The format is cell-based.
The subject of a further experiment is Huh7 cells. The experiment can be described thus: Cell proliferation, Huh7 (CellTiter Glo). The following applies: read-out: Cell Proliferation GI50 (nM) HUH, 120 hr.
The next experiment concerns MDA-MB-453 cells. The experiment can be described thus: Cell proliferation, MDA-MB-453 (CellTiter Glo). Conditions: read-out: Cell Proliferation GI50 (nM) MDA, 96 hr. Background: ATP-based viability assays read luminescence as a measure of living cells.

Regarding `C=CC(=O)Nc1ccc(C)cc1Nc1ncc2cc(-c3c(Cl)c(OC)cc(OC)c3Cl)c(=O)n(C)c2n1`, the IC50 on FGFR4-WT was below 100 nM. The EC50 on pFGFR4 (Huh7 cells) was below 100 nM.
For the compound `C=CC(=O)NC1CSCC1Nc1ncc2cc(-c3c(Cl)c(OC)cc(OC)c3Cl)c(=O)n(C)c2n1` (stereo not shown), the half-inhibitory concentration (IC50) on FGFR4-WT was below 100 nM. The EC50 on pFGFR4 (Huh7 cells) is below 100 nM.
For `C=CC(=O)N[C@H]1CN(C(C)=O)C[C@H]1Nc1ncc2cc(-c3c(Cl)c(OC)cc(OC)c3Cl)c(=O)n(C)c2n1` (relative stereo), the GI50 in the experiment with Huh7 cells lay within 501 to 999 nM. For the same compound, at FGFR4-WT, the concentration for half-maximal inhibition (IC50) is below 100 nM. Besides, at pFGFR4 (Huh7 cells), the EC50 was below 100 nM.
Take `C#CC(=O)N[C@H]1COC[C@H]1Nc1ncc2cc(-c3c(Cl)c(OC)cc(OC)c3Cl)c(=O)n(C)c2n1` [Compound I-251]: on FGFR4-WT, the IC50 is below 100 nM. Also, the EC50 at pFGFR4 (Huh7 cells) is below 100 nM.
`C=CC(=O)N[C@H]1COC[C@H]1Nc1ncc2cc(-c3c(Cl)c(OC)cc(OC(F)F)c3Cl)c(=O)n(C)c2n1`: the IC50 at FGFR4-WT was below 100 nM. For the same compound, the EC50 on pFGFR4 (Huh7 cells) is below 100 nM.
As to `C=CC(=O)Nc1cnccc1Nc1ncc2cc(-c3c(Cl)c(OC)cc(OC)c3Cl)c(=O)n(C)c2n1`, the GI50 was below 100 nM in the experiment with MDA-MB-453 cells and 101 to 500 nM in the experiment on Huh7 cells. For the same compound, the IC50 at FGFR4-WT is below 100 nM. For the same compound, on pFGFR4 (Huh7 cells), the EC50 is below 100 nM.
With `C=CC(=O)N[C@H]1COC[C@H]1Nc1ncc2cc(-c3c(Cl)c(OC)cc(OC)c3Cl)c(=O)n(CC(O)CO)c2n1` (relative stereo), in the experiment on Huh7 cells, the GI50 was in the range of 101 to 500 nM. The 50% inhibitory concentration (IC50) at FGFR4-WT is below 100 nM. In addition, on pFGFR4 (Huh7 cells), the EC50 was below 100 nM.
`C=CC(=O)Nc1cc(C2CC2)ccc1Nc1ncc2cc(-c3c(Cl)c(OC)cc(OC)c3Cl)c(=O)n(C)c2n1`: the figures for the GI50 with MDA-MB-453 cells and in the experiment with Huh7 cells were below 100 nM and 101 to 500 nM, respectively. Besides, the IC50 on FGFR4-WT was below 100 nM. Moreover, the EC50 on pFGFR4 (Huh7 cells) was below 100 nM.
In the case of `C=CC(=O)Nc1ccc(F)cc1Nc1ncc2cc(-c3c(Cl)c(OC)cc(OC)c3Cl)c(=O)n(C)c2n1`, the half-inhibitory concentration (IC50) on FGFR4-WT is below 100 nM. Moreover, the EC50 on pFGFR4 (Huh7 cells) is below 100 nM.
In the case of `C=CC(=O)Nc1cc(C(F)(F)F)ccc1Nc1ncc2cc(-c3c(Cl)c(OC)cc(OC)c3Cl)c(=O)n(C)c2n1`, the IC50 at FGFR4-WT is below 100 nM. Besides, on pFGFR4 (Huh7 cells), the EC50 was below 100 nM.
With `C=CC(=O)Nc1c(F)cccc1Nc1ncc2cc(-c3c(Cl)c(OC)cc(OC)c3Cl)c(=O)n(C)c2n1`, the IC50 at FGFR4-WT was below 100 nM. The half-maximal effective concentration (EC50) on pFGFR4 (Huh7 cells) was below 100 nM.
`C=CC(=O)N[C@H]1CN(c2ccn(C)n2)C[C@H]1Nc1ncc2cc(-c3c(Cl)c(OC)cc(OC)c3Cl)c(=O)n(C)c2n1`: the GI50 in the experiment on MDA-MB-453 cells and in the experiment on Huh7 cells was below 100 nM each time. Also, the IC50 at FGFR4-WT is below 100 nM. Moreover, the EC50 on pFGFR4 (Huh7 cells) was below 100 nM.
As for `C=CC(=O)Nc1nc(OC)ccc1Nc1ncc2cc(-c3c(Cl)c(OC)cc(OC)c3Cl)c(=O)n(C)c2n1`, the GI50 in the experiment on MDA-MB-453 cells was 101 to 500 nM; in the experiment on Huh7 cells, above 1000 nM. At FGFR4-WT, the IC50 was below 100 nM. Also, the EC50 on pFGFR4 (Huh7 cells) is below 100 nM.
Take `C=CC(=O)N[C@H]1COC[C@H]1Nc1ncc2cc(-c3c(Cl)c(OC)cc(OC)c3Cl)c(=O)n(CC(O)CO)c2n1` (single isomer, unassigned): the GI50 with Huh7 cells fell in the range of 101 to 500 nM. Besides, the IC50 on FGFR4-WT is below 100 nM. Besides, the half-maximal effective concentration (EC50) at pFGFR4 (Huh7 cells) was below 100 nM.
Regarding `C=CC(=O)Nc1cc(-c2nnn(C)n2)ccc1Nc1ncc2cc(-c3c(Cl)c(OC)cc(OC)c3Cl)c(=O)n(C)c2n1`, the figures for the GI50 in the experiment on MDA-MB-453 cells and in the experiment with Huh7 cells were below 100 nM and 101 to 500 nM, respectively. For the same compound, on FGFR4-WT, the IC50 was below 100 nM. In addition, at pFGFR4 (Huh7 cells), the 50% effective concentration (EC50) is below 100 nM.

For orientation: IC50 means the concentration that gives 50% inhibition. As a reminder, the EC50 is the midpoint of the concentration-response curve.
